The text below walks through data of PMC13503787.

The experiment has as its target RPB1, the largest subunit of RNA polymerase II (Pol II) (human (endogenous in HCT-116)) (UniProt P24928). Put plainly: co-IP; nuclear fraction of HCT-116 RAD21-mAID cells (Benzonase lysis, washes with 200 mM NaCl, 0.1% NP-40); cells treated with DRB for 3 h and harvested 20 min after DRB removal, with or without auxin (RAD21 depletion); Pol II precipitated with antibodies against RPB1 CTD or Ser2-phosphorylated …; blots of PAF1, CDC73, CTR9.
For the substance “CDC73 (from UniProt Q6P1J9 1-531) (natural protein)”, the level co-precipitated after auxin treatment, percent of control, normalized to RPB1 came out at 55%.
Substance “CTR9 (from UniProt Q6PD62 1-1173) (natural protein)” returned a level co-precipitated after auxin treatment, percent of control, normalized to RPB1 of 75%.
The substance “PAF1 (from UniProt Q8N7H5 1-531) (natural protein)” yielded a level co-precipitated after auxin treatment, percent of control, normalized to RPB1 of 59%.
